The target of assay [1] is T1, Zinc finger protein 131 (Homo sapiens) (UniProt P52739).
T1 sequence (whole entry): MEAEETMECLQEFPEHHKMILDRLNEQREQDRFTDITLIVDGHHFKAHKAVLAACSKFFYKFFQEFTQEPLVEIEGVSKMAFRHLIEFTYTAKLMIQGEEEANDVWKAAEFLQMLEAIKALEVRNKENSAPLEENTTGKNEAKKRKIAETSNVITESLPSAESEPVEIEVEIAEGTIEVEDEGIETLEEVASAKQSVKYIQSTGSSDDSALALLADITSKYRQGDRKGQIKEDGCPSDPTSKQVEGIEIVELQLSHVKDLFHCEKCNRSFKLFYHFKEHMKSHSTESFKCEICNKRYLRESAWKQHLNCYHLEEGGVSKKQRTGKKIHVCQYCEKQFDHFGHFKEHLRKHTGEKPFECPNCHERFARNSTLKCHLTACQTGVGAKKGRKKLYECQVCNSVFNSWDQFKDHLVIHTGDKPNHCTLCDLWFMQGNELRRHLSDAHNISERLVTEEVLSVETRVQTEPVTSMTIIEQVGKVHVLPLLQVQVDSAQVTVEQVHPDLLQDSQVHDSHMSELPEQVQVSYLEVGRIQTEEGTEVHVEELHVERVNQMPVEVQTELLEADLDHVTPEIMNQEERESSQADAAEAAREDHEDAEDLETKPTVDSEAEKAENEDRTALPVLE
The conditions noted are these: OCI-Ly1.

For assay [2], the target named is T2, Zinc finger and BTB domain-containing protein 11 (Homo sapiens) (UniProt O95625).
T2 sequence (whole entry): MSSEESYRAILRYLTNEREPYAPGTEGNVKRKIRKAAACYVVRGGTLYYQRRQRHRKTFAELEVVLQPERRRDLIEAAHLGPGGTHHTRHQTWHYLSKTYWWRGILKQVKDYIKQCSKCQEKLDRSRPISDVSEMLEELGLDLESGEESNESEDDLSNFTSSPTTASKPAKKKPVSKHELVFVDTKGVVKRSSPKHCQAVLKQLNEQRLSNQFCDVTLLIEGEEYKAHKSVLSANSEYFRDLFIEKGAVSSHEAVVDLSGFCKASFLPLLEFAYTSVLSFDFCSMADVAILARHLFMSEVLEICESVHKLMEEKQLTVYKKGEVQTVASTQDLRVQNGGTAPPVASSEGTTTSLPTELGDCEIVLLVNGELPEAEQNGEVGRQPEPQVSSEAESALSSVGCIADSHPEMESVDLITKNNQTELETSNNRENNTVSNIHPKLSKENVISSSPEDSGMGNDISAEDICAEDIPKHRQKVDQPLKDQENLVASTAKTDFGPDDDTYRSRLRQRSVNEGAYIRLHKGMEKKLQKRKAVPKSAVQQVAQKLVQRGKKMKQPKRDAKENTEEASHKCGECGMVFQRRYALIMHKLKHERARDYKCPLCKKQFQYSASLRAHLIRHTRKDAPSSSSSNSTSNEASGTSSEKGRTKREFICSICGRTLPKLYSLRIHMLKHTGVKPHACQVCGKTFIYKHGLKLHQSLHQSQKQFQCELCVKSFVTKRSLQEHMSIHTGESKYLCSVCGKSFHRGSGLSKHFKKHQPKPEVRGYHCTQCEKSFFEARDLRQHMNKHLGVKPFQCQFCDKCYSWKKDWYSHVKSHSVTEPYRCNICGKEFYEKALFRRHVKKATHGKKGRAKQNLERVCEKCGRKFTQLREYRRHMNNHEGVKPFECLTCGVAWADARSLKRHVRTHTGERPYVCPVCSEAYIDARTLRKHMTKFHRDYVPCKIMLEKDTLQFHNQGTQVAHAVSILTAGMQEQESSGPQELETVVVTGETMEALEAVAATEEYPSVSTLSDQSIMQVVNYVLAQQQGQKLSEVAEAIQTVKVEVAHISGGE
The conditions noted are these: SUD4.

For assay [3], the target named is T3, Zinc finger and BTB domain-containing protein 24 (Homo sapiens) (UniProt O43167).
T3 sequence (whole entry): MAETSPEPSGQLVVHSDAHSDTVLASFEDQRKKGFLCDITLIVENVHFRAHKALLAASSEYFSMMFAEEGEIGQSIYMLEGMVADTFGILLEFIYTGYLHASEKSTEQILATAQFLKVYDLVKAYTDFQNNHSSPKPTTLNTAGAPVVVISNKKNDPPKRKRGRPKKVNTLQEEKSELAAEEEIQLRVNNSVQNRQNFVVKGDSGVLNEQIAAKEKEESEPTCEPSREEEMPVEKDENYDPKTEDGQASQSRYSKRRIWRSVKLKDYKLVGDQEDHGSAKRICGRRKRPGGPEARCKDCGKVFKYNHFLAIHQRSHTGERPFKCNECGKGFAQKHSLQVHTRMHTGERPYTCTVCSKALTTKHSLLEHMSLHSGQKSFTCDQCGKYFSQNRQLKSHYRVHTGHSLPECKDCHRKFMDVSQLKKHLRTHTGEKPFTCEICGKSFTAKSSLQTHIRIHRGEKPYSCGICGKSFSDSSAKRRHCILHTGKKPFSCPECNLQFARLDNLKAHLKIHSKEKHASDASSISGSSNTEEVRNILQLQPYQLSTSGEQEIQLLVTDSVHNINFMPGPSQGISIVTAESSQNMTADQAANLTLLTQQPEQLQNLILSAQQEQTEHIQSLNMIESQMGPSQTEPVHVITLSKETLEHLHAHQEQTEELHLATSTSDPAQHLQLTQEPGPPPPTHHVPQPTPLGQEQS
The conditions noted are these: SUD4.

The target of assay [4] is B-cell lymphoma 6 protein (Homo sapiens, UniProt P41182). The conditions noted are these: SUD4.

Results on one compound are retold here after ChEMBL document CHEMBL5058646 (2022).

The structures appear in SMILES notation.

Consider `C[C@@H]1CN(c2ncc(Cl)c(Nc3ccc4c(c3)n(CCC(C)(C)O)c(=O)n4C)n2)C[C@H](C)C1(F)F`, for which the Normalized abundances for DMSO in assay [1] amounted to 34.9; in assay [2], 2740; in assay [3], 288; in assay [4], 12200. Also, the Normalized abundances for compound turned out to be 21.3 in assay [1], 2800 in assay [2], 293 in assay [3] and 5550 in assay [4].
